Test results published in patent publication US9150578B2, “5,8-dihydro-6H-pyrazolo[3,4-h]quinazolines as IGF-1R/IR inhibitors” (Boehringer Ingelheim International GmbH, priority 2012, dated 2015).

test system: TC-71 (Ewing's sarcoma) cells; assay: Cell proliferation assay, TC-71 (Alamar Blue); assay type: cell-based; details: TC-71 cells, 72 h, read-out: TC71 EC50 range
Method: Cell Proliferation Assays
Published scientific data has described that interference with the Insulin-like Growth Factor-1 Receptor (IGF-1R) signaling pathway reduces the proliferation of TC-71 cells. Therefore TC-71 cells served as a positive control cell line for monitoring the activity of compounds against IGF-1R-mediated cell proliferation.
2000 TC-71 cells or 1000 HCT 116 cells were seeded per well in 180 μL IMDM+10% foetal calf serum (FCS)+penicillin/streptomycin into 96-well microtitre plates. The plates were placed in a cell culture incubator (37° C. in a humidified atmosphere of 95% […]/5 CO2) overnight. The following day, serial dilutions of compounds, prepared in duplicates, were transferred onto the cell layers (controls without compound). The cells were cultivated for a further 72 h in the cell culture incubator. 20 μL of Alamar Blue™ (Serotec Ltd, Düsseldorf, Germany) was added to each well and the plates incubated for 7 h in the cell culture incubator.

Row | Compound | EC50
1 | CC1Cc2nn(C)c(-c3ccc(-c4cnn(C)c4)cc3)c2-c2nc(Nc3ccn(C)n3)ncc21 (racemic) [I-100] | < 10 nM
2 | CCn1cc(-c2ccc(-c3c4c(nn3C)CC(C)c3cnc(Nc5ccn(C)n5)nc3-4)cc2)cn1 (racemic) [I-101] | < 10 nM
3 | CC1Cc2nn(C)c(-c3ccc(-c4cnn(C(C)C)c4)cc3)c2-c2nc(Nc3ccn(C)n3)ncc21 (racemic) [I-102] | < 10 nM
4 | COCCn1cc(-c2ccc(-c3c4c(nn3C)CC(C)c3cnc(Nc5ccn(C)n5)nc3-4)cc2)cn1 (racemic) [I-103] | < 10 nM
5 | Cn1cc(-c2ccc(-c3c4c(nn3C)CCc3cnc(Nc5ccn(CCO)n5)nc3-4)cc2)cn1 [I-003] | < 10 nM
6 | Cn1cc(-c2ccc(-c3c4c(nn3C)CCc3cnc(Nc5ccn(CCCO)n5)nc3-4)cc2)cn1 [I-004] | < 10 nM
7 | CN(C)C(=O)Cn1cc(Nc2ncc3c(n2)-c2c(nn(C)c2-c2ccc(-c4cnn(C)c4)cc2)CC3)cn1 [I-005] | < 10 nM
8 | CC(C)n1cc(-c2ccc(-c3c4c(nn3C)CCc3cnc(Nc5ccn(C)n5)nc3-4)cc2)cn1 [I-006] | < 10 nM
9 | Cc1cc(Nc2ncc3c(n2)-c2c(nn(C)c2-c2ccc(-c4cnn(C(C)C)c4)cc2)CC3)nn1C [I-007] | < 10 nM
10 | COCCn1ccc(Nc2ncc3c(n2)-c2c(nn(C)c2-c2ccc(-c4cnn(C)c4)cc2)CC3)n1 [I-008] | < 10 nM
11 | CN(C)C(=O)Cn1ccc(Nc2ncc3c(n2)-c2c(nn(C)c2-c2ccc(-c4cnn(C)c4)cc2)CC3)n1 [I-009] | < 10 nM
12 | Cn1cc(Nc2ncc3c(n2)-c2c(nn(C)c2-c2ccc(-c4cnn(C)c4)cc2)CC3)cn1 [I-010] | < 10 nM
13 | Cc1cc(Nc2ncc3c(n2)-c2c(nn(C)c2-c2ccc(-c4cnn(C)c4)cc2)CC3)nn1C [I-011] | < 10 nM
14 | Cn1cc(-c2cccc(Cc3c4c(nn3C)CCc3cnc(Nc5ccn(C)n5)nc3-4)c2)cn1 [I-012] | < 10 nM
15 | CN(C)C(=O)Cn1ccc(Nc2ncc3c(n2)-c2c(nn(C)c2Cc2cccc(-c4cnn(C)c4)c2)CC3)n1 [I-014] | 10 to 100 nM
16 | CN(C)CCn1ccc(Nc2ncc3c(n2)-c2c(nn(C)c2Cc2cccc(-c4cnn(C)c4)c2)CC3)n1 [I-015] | < 10 nM
17 | COCCn1ccc(Nc2ncc3c(n2)-c2c(nn(C)c2Cc2cccc(-c4cnn(C)c4)c2)CC3)n1 [I-016] | < 10 nM
18 | CN(C)CCn1cc(Nc2ncc3c(n2)-c2c(nn(C)c2Cc2cccc(-c4cnn(C)c4)c2)CC3)cn1 [I-017] | < 10 nM
19 | Cn1cc(Nc2ncc3c(n2)-c2c(nn(C)c2Cc2cccc(-c4cnn(C)c4)c2)CC3)cn1 [I-018] | 10 to 100 nM
20 | Cc1cc(Nc2ncc3c(n2)-c2c(nn(C)c2Cc2cccc(-c4cnn(C)c4)c2)CC3)nn1C [I-019] | < 10 nM
21 | CC(C)n1cc(-c2ccc(-c3c4c(nn3C)CCc3cnc(Nc5ccn(CCN(C)C)n5)nc3-4)cc2)cn1 [I-021] | < 10 nM
22 | CCn1cc(Nc2ncc3c(n2)-c2c(nn(C)c2-c2ccc(-c4cnn(C)c4)cc2)CC3)cn1 [I-024] | < 10 nM
23 | Cn1cc(-c2ccc(-c3c4c(nn3C)CCc3cnc(Nc5cnn(CCN6CCOCC6)c5)nc3-4)cc2)cn1 [I-025] | < 10 nM
24 | Cn1cc(-c2ccc(-c3c4c(nn3C)CCc3cnc(Nc5cnn(Cc6ccncc6)c5)nc3-4)cc2)cn1 [I-026] | < 10 nM

Row | Compound | EC50
25 | Cn1cc(-c2ccc(-c3c4c(nn3C)CCc3cnc(Nc5ccn(CC(C)(C)O)n5)nc3-4)cc2)cn1 [I-028] | < 10 nM
26 | Cn1cc(-c2ccc(-c3c4c(nn3C)CCc3cnc(Nc5ccn(CCN6CCOCC6)n5)nc3-4)cc2)cn1 [I-029] | < 10 nM
27 | COCCN1CCN(CCn2ccc(Nc3ncc4c(n3)-c3c(nn(C)c3-c3ccc(-c5cnn(C)c5)cc3)CC4)n2)CC1 [I-030] | < 10 nM
28 | CN1CCN(CCn2ccc(Nc3ncc4c(n3)-c3c(nn(C)c3-c3ccc(-c5cnn(C)c5)cc3)CC4)n2)CC1 [I-031] | < 10 nM
29 | Cn1cc(-c2cccc(Cc3c4c(nn3C)CCc3cnc(Nc5ccn(CCN6CCOCC6)n5)nc3-4)c2)cn1 [I-032] | < 10 nM
30 | COCCN1CCN(CCn2ccc(Nc3ncc4c(n3)-c3c(nn(C)c3Cc3cccc(-c5cnn(C)c5)c3)CC4)n2)CC1 [I-033] | < 10 nM
31 | CN1CCN(CCn2ccc(Nc3ncc4c(n3)-c3c(nn(C)c3Cc3cccc(-c5cnn(C)c5)c3)CC4)n2)CC1 [I-034] | < 10 nM
32 | Cn1cc(-c2cccc(Cc3c4c(nn3C)CCc3cnc(Nc5ccn(CCCN6CCCC6)n5)nc3-4)c2)cn1 [I-035] | < 10 nM
33 | COCCCn1ccc(Nc2ncc3c(n2)-c2c(nn(C)c2Cc2cccc(-c4cnn(C)c4)c2)CC3)n1 [I-036] | < 10 nM
34 | Cn1cc(-c2cccc(Cc3c4c(nn3C)CCc3cnc(Nc5ccn(CCCn6ccnc6)n5)nc3-4)c2)cn1 [I-037] | < 10 nM
35 | CCS(=O)(=O)CCn1ccc(Nc2ncc3c(n2)-c2c(nn(C)c2Cc2cccc(-c4cnn(C)c4)c2)CC3)n1 [I-038] | < 10 nM
36 | CN(C)C(=O)CCCn1ccc(Nc2ncc3c(n2)-c2c(nn(C)c2Cc2cccc(-c4cnn(C)c4)c2)CC3)n1 [I-039] | < 10 nM
37 | CN(C)CCNC(=O)Cn1ccc(Nc2ncc3c(n2)-c2c(nn(C)c2Cc2cccc(-c4cnn(C)c4)c2)CC3)n1 [I-040] | 10 to 100 nM
38 | Cn1cc(-c2cccc(Cc3c4c(nn3C)CCc3cnc(Nc5ccn(CC(=O)N6CCOCC6)n5)nc3-4)c2)cn1 [I-041] | 10 to 100 nM
39 | CCn1ccc(Nc2ncc3c(n2)-c2c(nn(C)c2-c2ccc(-c4cnn(CC(=O)N(C)C)c4)cc2)CC3)n1 [I-053] | < 10 nM
40 | COCCn1ccc(Nc2ncc3c(n2)-c2c(nn(C)c2-c2ccc(-c4cnn(C(C)C)c4)cc2)CC3)n1 [I-054] | < 10 nM
41 | CCn1ccc(Nc2ncc3c(n2)-c2c(nn(C)c2-c2ccc(-c4cnn(CC(C)C)c4)cc2)CC3)n1 [I-055] | < 10 nM
42 | CCCn1cc(-c2ccc(-c3c4c(nn3C)CCc3cnc(Nc5ccn(CC)n5)nc3-4)cc2)cn1 [I-056] | < 10 nM
43 | CCn1ccc(Nc2ncc3c(n2)-c2c(nn(C)c2-c2ccc(-c4cnn(Cc5ccccc5)c4)cc2)CC3)n1 [I-057] | < 10 nM
44 | CCn1cc(-c2ccc(-c3c4c(nn3C)CCc3cnc(Nc5ccn(CCN(C)C)n5)nc3-4)cc2)cn1 [I-058] | < 10 nM
45 | COCCn1cc(-c2ccc(-c3c4c(nn3C)CCc3cnc(Nc5ccn(CCN(C)C)n5)nc3-4)cc2)cn1 [I-059] | < 10 nM
46 | CC(C)Cn1cc(-c2ccc(-c3c4c(nn3C)CCc3cnc(Nc5ccn(CCN(C)C)n5)nc3-4)cc2)cn1 [I-060] | < 10 nM
47 | CCCn1cc(-c2ccc(-c3c4c(nn3C)CCc3cnc(Nc5ccn(CCN(C)C)n5)nc3-4)cc2)cn1 [I-061] | < 10 nM
48 | CCn1ccc(Nc2ncc3c(n2)-c2c(nn(C)c2-c2ccc(-c4cnn(CCN(C)C)c4)cc2)CC3)n1 [I-062] | < 10 nM

Row | Compound | EC50
49 | CCn1ccc(Nc2ncc3c(n2)-c2c(nn(C)c2-c2ccc(-c4cnn(C)c4)cc2)CC3)n1 [I-065] | < 10 nM
50 | CCn1ccc(Nc2ncc3c(n2)-c2c(nn(C)c2-c2ccc(-c4cnn(C)c4C)cc2)CC3)n1 [I-067] | 10 to 100 nM
51 | CCn1ccc(Nc2ncc3c(n2)-c2c(nn(C)c2-c2ccc(-c4c[nH]nc4C)cc2)CC3)n1 [I-068] | 10 to 100 nM
52 | CCn1ccc(Nc2ncc3c(n2)-c2c(nn(C)c2-c2ccc(-c4c(C)n[nH]c4C)cc2)CC3)n1 [I-069] | 10 to 100 nM
53 | CN(C)CCn1ccc(Nc2ncc3c(n2)-c2c(nn(C)c2-c2ccc(-c4cnn(C)c4)cc2)CC3)n1 [I-070] | < 10 nM
54 | Cn1cc(-c2ccc(-c3c4c(nn3C)CCc3cnc(Nc5ccn(C)n5)nc3-4)cc2)cn1 [I-071] | < 10 nM
55 | CCn1cc(-c2ccc(-c3c4c(nn3C)CCc3cnc(Nc5ccn(CC)n5)nc3-4)cc2)cn1 [I-072] | < 10 nM
56 | CCn1ccc(Nc2ncc3c(n2)-c2c(nn(C)c2-c2ccc(-c4cnn(C(C)C)c4)cc2)CC3)n1 [I-073] | < 10 nM
57 | CCn1ccc(Nc2ncc3c(n2)-c2c(nn(C)c2Cc2cccc(-c4cnn(CCOC)c4)c2)CC3)n1 [I-074] | < 10 nM
58 | CN(C)CCn1cc(Nc2ncc3c(n2)-c2c(nn(C)c2-c2ccc(-c4cnn(C)c4)cc2)CC3)cn1 [I-076] | < 10 nM
59 | CCn1ccc(Nc2ncc3c(n2)-c2c(nn(C)c2Cc2cccc(-c4cnn(C)c4)c2)CC3)n1 [I-077] | < 10 nM
60 | CCn1ccc(Nc2ncc3c(n2)-c2c(nn(C)c2Cc2cccc(-c4cn[nH]c4)c2)CC3)n1 [I-078] | < 10 nM
61 | CC(C)n1cc(-c2ccc(-c3c4c(nn3C)CCc3cnc(Nc5cnn(CC(=O)N(C)C)c5)nc3-4)cc2)cn1 [I-079] | < 10 nM
62 | CCn1ccc(Nc2ncc3c(n2)-c2c(nn(C)c2-c2ccc(-c4cnn(CCOC)c4)cc2)CC3)n1 [I-080] | < 10 nM
63 | CCn1ccc(Nc2ncc3c(n2)-c2c(nn(C)c2-c2ccc(-c4cnn(CCO)c4)cc2)CC3)n1 [I-081] | < 10 nM
64 | CCn1ccc(Nc2ncc3c(n2)-c2c(nn(C)c2-c2ccc(-c4cnn(CCCOC)c4)cc2)CC3)n1 [I-082] | < 10 nM
65 | COCCCn1cc(-c2ccc(-c3c4c(nn3C)CCc3cnc(Nc5ccn(CCN(C)C)n5)nc3-4)cc2)cn1 [I-083] | < 10 nM
66 | CN(C)CCn1ccc(Nc2ncc3c(n2)-c2c(nn(C)c2-c2ccc(-c4cnn(CC(=O)N(C)C)c4)cc2)CC3)n1 [I-084] | < 10 nM
67 | CN(C)CCn1ccc(Nc2ncc3c(n2)-c2c(nn(C)c2-c2ccc(-c4cnn(CCO)c4)cc2)CC3)n1 [I-085] | < 10 nM
68 | CCn1cc(-c2cccc(Cc3c4c(nn3C)CCc3cnc(Nc5ccn(CC)n5)nc3-4)c2)cn1 [I-086] | < 10 nM
69 | CCCn1cc(-c2cccc(Cc3c4c(nn3C)CCc3cnc(Nc5ccn(CC)n5)nc3-4)c2)cn1 [I-087] | < 10 nM
70 | CCn1ccc(Nc2ncc3c(n2)-c2c(nn(C)c2Cc2cccc(-c4cnn(Cc5ccccc5)c4)c2)CC3)n1 [I-088] | < 10 nM
71 | CCn1ccc(Nc2ncc3c(n2)-c2c(nn(C)c2Cc2cccc(-c4cnn(CC(C)C)c4)c2)CC3)n1 [I-089] | < 10 nM
